According to PubChem BioAssay (EPA / NIEHS):
The list shows a part of the results, in another mix than the full data. Inconclusive results are not listed. Active and inactive are the calls of the source. Rule for the calls, unless noted: active = hit-call score of the fitted dose curve at least 0.9, where 1 is the maximum; inconclusive = response in the unintended direction; inactive = score below 0.9.

What was measured:
[1] = ACEA_AR_agonist_AUC_viability: ACEA Biosciences xCELLigence Real-Time Cell Analysis on Androgen Receptor Agonism for Viability (AID 2283775)
Procedure, shortened: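 Viability endpoint from xCELLigence impedance in 22Rv1 prostate cells at 80 h. Eight-point series, 100 uM maximum final.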

[2] = Tanguay_ZF_120hpf_TRUN_legacy: (Legacy) Oregon State University Tanguay Lab 120 Hour Post-fertilization zebrafish Assay for Truncated Body (AID 2283655)
Procedure, shortened: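 Truncated body is recorded as a binary endpoint at 120 hpf by brightfield imaging of wild-type 5D larvae. Exposure runs statically from 6 hpf at 28C with 0.64% DMSO; embryos dying earlier are not scored.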

[3] = Tanguay_ZF_120hpf_NC_legacy: (Legacy) Oregon State University Tanguay Lab 120 Hour Post-fertilization zebrafish Assay for Notochord and Tail Malformation (AID 2283656)
Procedure, shortened: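 Binary notochord-distortion calls, made by brightfield inspection, form the read-out; activity is fitted in the positive direction against DMSO. Exposure ran statically from 6 to 120 hpf at 28C with 0.64% DMSO.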

[4] = Tanguay_ZF_120hpf_TR_legacy: (Legacy) Oregon State University Tanguay Lab 120 Hour Post-fertilization zebrafish Assay for Touch Response (AID 2283667)
Procedure, shortened: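 Binary touch-response endpoint in larvae at 120 hpf after static waterborne exposure from embryo stage (28°C, 0.64% DMSO vehicle, 5 uM trimethyltin chloride as positive control); embryos dead at 24 or 120 hpf excluded; fitted as gain versus DMSO.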

[5] = STM_H9_OrnithineISnorm_perc: Stemina devTOX quickPredict H9 human embryonic stem cell (hESC)-based Assay for Ornithine (ORN) Metabolite Biomarker, Normalized (AID 2283712; active = hit-call score of the fitted dose curve at least 0.9, where 1 is the maximum; inactive = score below 0.9;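 note: ornithine released into spent medium during last day measured by mass spectrometry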)
Excerpt: (§1) STM_H9_secretome utilizes undifferentiated H9 cells to measure relative changes in two metabolites, ornithine (ORN) and cystine (CYSS) in the secretome, targeting a critical drop in the ORN/CYSS ratio as a biomarker for developmental toxicity.STM_H9_OrnithineISnorm is one of 10 components calculated in the STM_H9_secretome assay. It measures the integrated area of the endogenous ornithine normalized to the spiked-in isotopically labeled standard and to the median value of the 0.1% DMSO neutral control treatment using UPLC-HRMS technology.Data from the assay component STM_H9_OrnithineISnorm_perc was analyzed at the assay endpoint STM_H9_OrnithineISnorm_perc in the positive analysis fitting direction relative to DMSO as the negative control and baseline of activity. […]
(§2) H9 hESCs maintained in a pluripotent state were exposed to test compound for 72h with chemical replenishment with media replacement every 24h. Cell-conditioned media from the final 24-h treatment period was collected for analysis of the targeted biomarker, and cell viability of the corresponding cell layer was assessed. […] Cell viability was measured using the CellTiter-Fluor assay (Promega, Madison, Wisconsin) based on proteolytic cleavage of a substrate to fluorescent signal proportional to the number of living cells. […]

[6] = STM_H9_CystineISnorm_perc: Stemina devTOX quickPredict H9 human embryonic stem cell (hESC)-based Assay for Cystine (CYSS) Metabolite Biomarker, Normalized (AID 2283713; active = hit-call score of the fitted dose curve at least 0.9, where 1 is the maximum; inactive = score below 0.9)
Excerpt: as §1, with “developmental toxicity.STM_H9_CystineISnorm_perc” for “developmental toxicity.STM_H9_OrnithineISnorm”, “endogenous cystine” for “endogenous ornithine”, “component STM_H9_CystineISnorm_perc” for “component STM_H9_OrnithineISnorm_perc”, “endpoint STM_H9_CystineISnorm_perc” for “endpoint STM_H9_OrnithineISnorm_perc”
as §2

[7] = STM_H9_OrnCyssISnorm_ratio: Stemina devTOX quickPredict H9 human embryonic stem cell (hESC)-based Assay for Ornithine (ORN):Cystine (CYSS) Ratio (AID 2283714)
Procedure, shortened: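 Ratio of internal-standard-normalized ornithine to cystine, measured by UPLC-HRMS in spent media from the last 24 h. H9 cells kept pluripotent, dosed 72 h with daily media and compound renewal; DMSO 0.1% serves as baseline.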

[8] = Tanguay_ZF_120hpf_ActivityScore_legacy: (Legacy) Oregon State University Tanguay Lab 120 Hour Post-fertilization zebrafish Assay Score for Activity (AID 2283742);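 for AC50: dechorionated Tropical 5D wild-type zebrafish embryos held singly per well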
Procedure, shortened: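 Binary scoring of mortality and morphology by brightfield at 24 and 120 hpf, summarised into one activity score from 18 components relative to DMSO. Wild-type Tropical 5D zebrafish, chorion removed at 4 hpf, static exposure 6–120 hpf, 28 °C.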

[9] = CCTE_Padilla_ZF_144hpf_TERATOSCORE: (Legacy) CCTE's 144 Hour Post-fertilization zebrafish Assay Teratoscore, Padilla Lab (AID 2283679; active = hit-call score of the fitted dose curve at least 0.9, where 1 is the maximum; inactive = score below 0.9;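 for AC50: zebrafish embryos with chorions exposed by immersion from 6-8 hpf to 5 dpf with daily renewal; teratogenicity score from eye scoring of death hatching and malformations at 144 hpf; higher score means more developmental defects relative to DMSO baseline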)
Procedure, shortened: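 Larvae scored by eye at 144 hpf for death, hatching and malformations after a day in clean Hanks'. Before that, daily-renewed exposure at 80 uM (0.4% DMSO, 26C) from roughly 6-8 hpf through 5 dpf, 4 embryos per chemical.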

[10] = CEETOX_H295R_MTT_cell_viability: Viability Assessment in the CeeTox HT-H295R MTT Assay (AID 2283718; active = hit-call score of the fitted dose curve at least 0.9, where 1 is the maximum; inactive = score below 0.9)
Procedure, shortened: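 MTT reduction (0.5 mg/ml, 4 h at 37 C; absorbance at 570 and 650 nm) gave viability as background-corrected percent change versus controls. H295R cells had 48 h forskolin (10 uM) prestimulation, then 48 h chemical exposure at 0.1% DMSO.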

For `COP(C)(=O)OC`, the outcome [1] was “inactive”.
With `Cc1ccc([N+](=O)[O-])cc1[N+](=O)[O-]` the outcome [2] was “inactive”, the outcome [3] was “inactive” and the outcome [4] was “inactive”. For the same compound, the AC50 [5] was active: 86.4 µM, the AC50 [6] was active: 64.8 µM and the AC50 [7] was active: 68.9 µM. The outcome [8] was “inactive”.
In the case of `O=[N+]([O-])c1cccc([N+](=O)[O-])c1`, the outcome [4] is reported as “inactive”, the AC50 [9] is reported as active: 67.7 µM and the AC50 [5] is reported as active: 72.7 µM. For the same compound, the AC50 [6] was active: 22.3 µM, the AC50 [7] was active: 44.8 µM and the outcome [8] was “inactive”.
In the case of `Cc1c([N+](=O)[O-])cccc1[N+](=O)[O-]`, the outcome [2] is reported as “inactive”, the outcome [3] is reported as “inactive” and the outcome [4] is reported as “inactive”. For the same compound, the AC50 [9] was active: 53.2 µM, the outcome [10] was “inactive” and the outcome [8] was “inactive”. For the same compound, the outcome [1] was “inactive”.
In the case of `O=[N+]([O-])OCC(CO[N+](=O)[O-])(CO[N+](=O)[O-])CO[N+](=O)[O-]`, the outcome [1] is reported as “inactive”.
For `Cc1cccc([N+](=O)[O-])c1[N+](=O)[O-]`, the outcome [2] was “inactive”, the outcome [3] was “inactive” and the outcome [4] was “inactive”. For the same compound, the AC50 [9] was active: 5.77 µM, the outcome [10] was “inactive” and the AC50 [8] was active: 21.5 µM.
In the case of `Cc1ccc([N+](=O)[O-])c([N+](=O)[O-])c1`, the outcome [10] is reported as “inactive”.
For `CC(C)OP(C)(=O)OC(C)C`, the outcome [2] was “inactive”, the outcome [3] was “inactive” and the outcome [4] was “inactive”. For the same compound, the outcome [9] was “inactive”, the outcome [8] was “inactive” and the outcome [1] was “inactive”.
